# Antibody variant affinities, Ab-14 light chain, assay B

Values reported by Li et al. 2023, doi:10.1038/s41467-023-39022-2 (FLAb copy).

The target is the same throughout: PDVDLGDISGINAS, from the HR2 region of SARS-CoV-2 spike.

Ab-14 is the parent antibody, in scFv form: VH, then three GGGGS repeats, then VL. The heavy chain is unchanged in all variants.
VH: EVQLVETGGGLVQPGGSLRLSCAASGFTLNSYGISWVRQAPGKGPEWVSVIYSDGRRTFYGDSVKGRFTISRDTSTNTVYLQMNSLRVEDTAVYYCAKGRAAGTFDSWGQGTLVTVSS
VL: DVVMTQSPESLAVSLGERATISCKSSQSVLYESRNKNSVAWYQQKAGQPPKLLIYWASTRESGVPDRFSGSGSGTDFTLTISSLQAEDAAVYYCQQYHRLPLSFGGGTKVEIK

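The parent was found by panning a naive human phage display library on the peptide. This is the validation round: designs drawn from the data on random variants, tested in the same kind of assay. Group labels follow the data file (Ctrl: baseline library sampled from a position-specific scoring matrix, with some repeated check sequences; Rand: our label for a block that the file lists under HC and that is probably the random mutants of the ten best first-round binders; GP: Gaussian process model; HC: hill climbing; Gen: genetic algorithm; Gibbs: Gibbs sampling; a sequence that several methods proposed may carry one label only). In AlphaSeq, yeast of one mating type display the scFv and yeast of the other type display the target. Pairs that bind mate more often; barcode pairs of the diploids are counted by sequencing. The ratio of observed to expected reads was calibrated, replicate by replicate, on BCL2-family standards whose Kd was known from biolayer interferometry. Mating was done six times.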

Positions count from residue 1 of the parent VL; S28D puts D in place of S.
Variants here have at most six changes.
The read-out is the apparent dissociation constant on a log10 scale (nM): the lower, the stronger.
Replicates are averaged; those with no signal do not enter the mean.
Where no diploid with the target was found in that replicate, the entry reads "ND": below detection, most likely a poor binder, though not proof of it.
Background: pairings of all light chain designs with three empty control strains gave a value in 4% of cases (median 2.64, 5th percentile 1.59). Values in that range, when seen in few replicates, are hard to tell from nonspecific mating. For each scFv, signals with the empty controls are counted beside the result, with their mean in brackets.
Some sequences occur more than once in the pool; their replicates are listed entry by entry, parted by semicolons.
Of ten entries with the parent sequence, four were seen in most replicates (averages 0.34 to 2.37), three in one and three in none, so single entries are noisy.
The authors averaged sequences with at least three values out of six and counted those with two or fewer as poor binders.
A sequence measured in both rounds can read differently, since the two assays cover different ranges.

changes,group,log10 Kd (nM) by replicate,"mean, log10 nM",signal with controls
S28D+Y31S+W56H+L100M,Ctrl,0.84 / 0.72 / 0.38 / 0.30 / 0.65 / 0.50,0.56,2 of 18 (2.51)
Q27I+V29Y+E32G+W56E+S103M,GP_HC,0.61 / 0.23 / 0.42 / 0.31 / 0.15 / 0.53,0.38,1 of 18 (2.57)
E32D+S62T,Ctrl,2.25 / 1.50 / 1.82 / 1.53 / 1.64 / 1.72,1.74,2 of 18 (2.74)
K36H+W56H+T59E+S62T+Y97R+R99H,Ctrl,ND / ND / ND / ND / ND / ND,ND,0 of 18
Q27T+A57G,Ctrl,2.21 / 2.73 / 1.81 / 2.17 / ND / ND,2.23,0 of 18
R34N+W56D+L100E,Ctrl,1.62 / 0.94 / 1.44 / 1.26 / 1.22 / 1.18,1.28,1 of 18 (2.33)
S25F+S38H+W56G,Ctrl,0.79 / 0.37 / 0.27 / 0.34 / 0.37 / 0.72,0.48,1 of 18 (3.01)
K24Y+S25L+S33D+W56N,Ctrl+GP_Gen,-0.10 / 0.01 / -0.30 / -0.39 / -0.30 / -0.02; ND / 1.63 / 0.61 / 1.16 / 0.59 / 0.68,0.32,0 of 36
S26G+S28G+W56G+R60E,Rand,ND / 2.50 / 2.26 / 1.91 / 2.81 / ND,2.37,0 of 18
S25L+V29W+N37W+W56N+T59Q,GP_Gen,-0.03 / -0.07 / 0.00 / -0.13 / 0.05 / 0.08,-0.02,0 of 18
Q27P+V29Y+R34H+W56N+E61M,GP_HC,0.80 / 0.49 / 0.70 / 0.26 / 0.42 / 0.62,0.55,2 of 18 (2.68)
S25V+V29M+W56H+T59Q,GP_Gen,-0.25 / -0.25 / -0.28 / -0.35 / -0.33 / -0.21,-0.28,0 of 18
E32G+S33D+R34N+H98R,Ctrl,0.40 / 1.09 / 0.45 / 1.96 / 0.99 / 1.27,1.03,0 of 18
S25L+W56S,Ctrl+GP_Gen,-0.39 / -0.39 / -0.59 / -0.67 / -0.40 / -0.14; 0.16 / 0.11 / -0.12 / -0.23 / -0.04 / 0.12,-0.22,1 of 36 (2.84)
S26L+V29G+K36F+W56H+S62D,GP_HC,0.27 / 0.14 / -0.30 / -0.13 / -0.01 / 0.32,0.05,0 of 18
S25L+Q27E+S38A+W56N,GP_Gen,-0.23 / -0.30 / -0.46 / -0.53 / -0.36 / -0.26,-0.36,1 of 18 (3.51)
R34N+S38N+S58T,Ctrl,1.40 / 1.13 / 1.35 / 1.06 / 0.92 / 1.54,1.23,1 of 18 (2.33)
K24H+Q27P+L30A+W56N+E61F,GP_HC,0.66 / 0.48 / 0.33 / 0.21 / 0.57 / 0.55,0.47,2 of 18 (2.57)
S25F+W56N+S62T,GP_HC,0.15 / 0.24 / 0.41 / 0.38 / 0.19 / 0.50,0.31,1 of 18 (1.96)
S25V+N35T+K36F+W56N,GP_HC,0.46 / 0.06 / 0.11 / 0.20 / 0.13 / 0.37,0.22,0 of 18
S25M+S26Q+V29Q+W56N+E61L,GP_Gen,-0.21 / -0.19 / -0.23 / -0.40 / -0.46 / -0.07,-0.26,0 of 18
S25L+E32G+W56E+T59Q,GP_Gen,-0.19 / -0.28 / 0.04 / -0.20 / -0.13 / -0.15,-0.15,0 of 18
S25H+Q27P+L30E+N35D+W56M+E61M,GP_Gibbs,0.68 / 0.39 / 0.74 / 0.38 / 0.68 / 0.77,0.61,0 of 18
S25E+V29W+L30P+W56G,GP_HC,-0.04 / -0.11 / -0.02 / -0.24 / -0.03 / 0.12,-0.05,1 of 18 (3.47)
K24Y+S62A,Ctrl,ND / 2.86 / ND / ND / ND / 1.45,2.16,0 of 18
S25V+W56N+S103I,GP_Gen,0.29 / 0.19 / 0.23 / 0.05 / 0.24 / 0.25,0.21,0 of 18
S25L+S26P+V29T+N35Q+W56N,GP_HC,0.38 / 0.12 / -0.09 / 0.19 / -0.10 / 0.16,0.11,2 of 18 (2.56)
S25E+S26P+V29H+L30D+W56N+T59E,GP_Gibbs,0.26 / -0.04 / 0.17 / -0.24 / -0.11 / 0.11,0.03,2 of 18 (2.60)
S25L+K36T+S38N+W56N,GP_Gen,-0.10 / -0.14 / -0.34 / -0.39 / -0.48 / -0.17,-0.27,0 of 18
Q27W+R34G+W56D,GP_HC,0.17 / 0.41 / 0.19 / 0.16 / 0.37 / 0.47,0.30,1 of 18 (2.35)
S25Y+W56K,Ctrl,1.08 / 1.53 / 1.03 / 1.09 / 1.38 / 0.90,1.17,2 of 18 (2.09)
S25L+L30G+Y31G+W56E+S62Q,GP_Gibbs,0.33 / 0.05 / -0.10 / -0.29 / -0.03 / 0.18,0.02,0 of 18
S25L+Q27M+L30W+N35M+K36C+W56E,GP_Gibbs,0.53 / 0.21 / 0.39 / 0.06 / 0.39 / 0.47,0.34,0 of 18
S25V+S26P+Q27F+S38A+W56Q+S62K,GP_Gibbs,-0.02 / -0.27 / -0.05 / -0.35 / -0.03 / -0.04,-0.13,1 of 18 (2.66)
S33M+S38I+S58A,Ctrl,ND / ND / ND / ND / ND / ND,ND,0 of 18
S25L+L30M+W56E+S62V,GP_Gen,0.00 / -0.07 / -0.04 / -0.18 / -0.12 / -0.04,-0.07,0 of 18
V29E+Y31M+W56D,GP_HC,-0.23 / -0.34 / -0.40 / -0.33 / -0.43 / -0.41,-0.36,0 of 18
S25L+V29M+K36D+W56Q+S62D+S103T,GP_Gibbs,0.22 / 0.24 / -0.16 / 0.00 / 0.21 / 0.45,0.16,1 of 18 (2.96)
S25L+V29H+W56N+S62E,GP_Gen,-0.09 / -0.13 / -0.20 / -0.37 / -0.22 / -0.04,-0.18,0 of 18
S25L+S28A+L30D+W56S,Ctrl,0.99 / 0.33 / 0.46 / 0.27 / 0.61 / 0.64,0.55,0 of 18
S25L+S26P+V29M+S38A+W56N+T59Q,GP_Gen,-0.03 / -0.33 / -0.79 / -0.40 / -0.53 / -0.58,-0.44,0 of 18
S25L+S26R+V29T+W56Q+S103H,GP_HC,0.82 / 0.61 / 0.37 / 0.42 / 0.33 / 0.63,0.53,4 of 18 (3.33)
K24L+Q27I+V29Y+R34P+W56E+S62D,GP_HC,0.33 / 0.28 / 0.29 / 0.09 / 0.43 / 0.87,0.38,1 of 18 (3.57)
S26K+R34A+N37Y+W56G+Q95E,Ctrl,1.12 / 1.43 / 1.07 / 1.07 / 1.28 / 1.35,1.22,5 of 18 (3.28)
K24R+S25F+W56D,GP_HC,0.24 / 0.18 / -0.03 / -0.01 / -0.02 / 0.13,0.08,1 of 18 (2.31)
L30W+R34N+K36L,Ctrl,ND / 2.33 / 1.90 / 3.15 / ND / 2.95,2.58,1 of 18 (2.39)
S25M+S26P+W56H+S62D+Q96S,GP_HC,1.14 / 0.67 / 0.15 / 0.21 / 0.16 / 0.73,0.51,1 of 18 (2.61)
S25I+Y31F+S33W+W56D,GP_HC,0.22 / 0.05 / -0.15 / -0.17 / -0.16 / 0.11,-0.01,2 of 18 (3.03)
S25I+W56D+S62V,Ctrl,-0.07 / -0.28 / -0.34 / -0.35 / -0.35 / -0.12,-0.25,2 of 18 (3.97)
L30T+S33C,Ctrl,ND / ND / 2.60 / ND / ND / ND,2.60,1 of 18 (2.17)
S26D+W56N,Ctrl,0.07 / 0.24 / 0.11 / -0.31 / -0.18 / 0.23,0.03,2 of 18 (2.29)